# This is a selection; strong and weak results do not stand in their true shares. Some results for these compounds are left out of this collection, so the calls shown say nothing about other tests. Calls of active or inactive are those of the source.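 Rule for the calls: active = B-score of the integrated calcium signal more than 4 SD below the library mean, with starting fluorescence not abnormally high; inactive = the rest.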
# Test: RGS4 potentiators or activators, primary screen, cell-based, HEK293 M3R inducible RGS4, calcium flux (AID 463111);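 for B-score: negative B-score means reduced calcium response which marks RGS4 activation or potentiation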
# Conditions: HEK293 M3R/inducible RGS4, carbachol calcium flux Fluo4, at 10 µM; active compounds read low
# How it was run: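 Material: Inducible-RGS4 HEK293 cells carrying M3 receptor; also added: carbachol at ECmax as muscarinic agonist stimulus; incubation: compound preincubation 20 min at room temperature before agonist; signal: Fluo4-AM (2 µM) calcium-flux fluorescence, kinetic read; measure: integrated calcium ratio converted to B score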
SMILES,outcome,B-score
COc1ccc(C(=O)NCC2(N(C)C)CCCCC2)cc1,inactive,
Cc1cc(C(=O)NCC2(N3CCCCC3)CCCCC2)ccc1[N+](=O)[O-],inactive,
CCN1CCCC(OC(=O)C2(O)c3ccccc3C=Cc3ccccc32)C1 (centres undefined),inactive,
O=C(NCC1(N2CCCCC2)CCCCC1)c1cccc(Br)c1,inactive,
C=CCN1CCN(CCOC(=O)C(O)(c2ccccc2)c2ccccc2)CC1,,active: -10.3
O=C(NCC1(N2CCCCC2)CCCCC1)c1cc(F)c(F)cc1Cl,inactive,
Cc1ccccc1C(=O)NCC1(N2CCCCC2)CCCCC1,inactive,
CN(C)C1CCCC1OC(=O)C(O)(c1ccccc1)c1ccccc1 (centres undefined),,active: -8.16
CN(C)c1ccc(C(=O)NCC2(N(C)C)CCCCC2)cc1,inactive,
Cc1ccc(C(=O)NCC2(N3CCCCC3)CCCCC2)cc1,inactive,
CCN(CC)CC(C)C(C)OC(=O)C(O)(c1ccccc1)c1ccccc1 (centres undefined),,active: -9.15
COc1cc(SC)ccc1C(=O)NCC1(N(C)C)CCCCC1,inactive,
CC(C)N1C(=O)CC2(CCN(CCOC(=O)C(O)(c3ccccc3)c3ccccc3)CC2)C1=O,inactive,
CN1[C@@H]2CC[C@H]1CC(OC(=O)C(O)(c1ccccc1)c1ccccc1)C2 (some centres undefined),,active: -7.31
O=C(NCC1(N2CCCCC2)CCCCC1)c1cc([N+](=O)[O-])ccc1Cl,inactive,
CC(C)Oc1ccc(C(=O)NCC2(N(C)C)CCCCC2)cc1,inactive,
CN(C)c1cccc(C(=O)NCC2(N(C)C)CCCCC2)c1,inactive,
COc1ccc(Br)c(C(=O)NCC2(N3CCCCC3)CCCCC2)c1,inactive,
O=C(OC1CN2CCC1CC2)C(CO)(c1ccccc1)c1ccccc1 (centres undefined),,active: -7.67
O=C(NCC1(N2CCCCC2)CCCCC1)c1cccc(Cl)c1,inactive,
COc1cccc(C(=O)NCC2(N3CCCCC3)CCCCC2)c1,inactive,
COc1ccc(Cl)cc1C(=O)NCC1(N(C)C)CCCCC1,inactive,
COc1cc(C(=O)NCC2(N(C)C)CCCCC2)c([N+](=O)[O-])cc1OC,inactive,
CN(C)C1(CNC(=O)c2ccc(Br)cc2)CCCCC1,inactive,
